The text below walks through data of patent US10227357B2, “Compounds and methods for kinase modulation, and indications therefor” (Plexxikon Inc., priority 2012, dated 2019).

The chains behind the UniProt entries cited, without tags or fusion partners. Where a name states a change or a piece, a line headed by the entry shows the natural chain unless it says otherwise. A line that says so, or that is headed by a name, gives the form on record, which may keep a tag or linker. Residues count along the entry.
UniProt P10721, 26-976 limits assumed: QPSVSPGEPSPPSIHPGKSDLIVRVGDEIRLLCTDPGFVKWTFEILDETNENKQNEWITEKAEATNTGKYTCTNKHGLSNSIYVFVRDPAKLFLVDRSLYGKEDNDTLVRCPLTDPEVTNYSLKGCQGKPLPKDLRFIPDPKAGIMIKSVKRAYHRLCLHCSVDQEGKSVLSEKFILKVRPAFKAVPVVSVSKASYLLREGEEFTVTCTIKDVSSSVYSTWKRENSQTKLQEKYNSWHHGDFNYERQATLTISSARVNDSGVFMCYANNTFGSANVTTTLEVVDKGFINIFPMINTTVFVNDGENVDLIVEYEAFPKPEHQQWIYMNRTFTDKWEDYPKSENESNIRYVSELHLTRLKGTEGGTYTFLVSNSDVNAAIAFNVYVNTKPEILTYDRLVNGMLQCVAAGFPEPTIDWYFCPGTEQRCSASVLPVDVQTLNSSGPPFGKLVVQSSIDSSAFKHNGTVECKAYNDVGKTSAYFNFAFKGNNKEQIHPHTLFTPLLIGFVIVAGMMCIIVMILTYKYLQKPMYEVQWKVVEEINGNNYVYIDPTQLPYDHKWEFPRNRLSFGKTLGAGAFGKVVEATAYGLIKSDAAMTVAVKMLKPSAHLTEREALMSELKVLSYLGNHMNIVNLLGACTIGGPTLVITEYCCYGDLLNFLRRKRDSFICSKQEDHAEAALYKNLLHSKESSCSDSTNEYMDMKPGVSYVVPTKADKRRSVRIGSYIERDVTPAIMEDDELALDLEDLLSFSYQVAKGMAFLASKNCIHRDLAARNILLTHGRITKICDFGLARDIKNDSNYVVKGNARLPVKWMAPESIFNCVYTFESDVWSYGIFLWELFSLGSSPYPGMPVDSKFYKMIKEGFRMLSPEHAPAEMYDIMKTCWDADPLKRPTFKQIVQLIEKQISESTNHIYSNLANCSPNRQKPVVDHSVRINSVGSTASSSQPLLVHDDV
UniProt P10721, with tags, fused parts or gaps D816V/DEL694-753 limits assumed: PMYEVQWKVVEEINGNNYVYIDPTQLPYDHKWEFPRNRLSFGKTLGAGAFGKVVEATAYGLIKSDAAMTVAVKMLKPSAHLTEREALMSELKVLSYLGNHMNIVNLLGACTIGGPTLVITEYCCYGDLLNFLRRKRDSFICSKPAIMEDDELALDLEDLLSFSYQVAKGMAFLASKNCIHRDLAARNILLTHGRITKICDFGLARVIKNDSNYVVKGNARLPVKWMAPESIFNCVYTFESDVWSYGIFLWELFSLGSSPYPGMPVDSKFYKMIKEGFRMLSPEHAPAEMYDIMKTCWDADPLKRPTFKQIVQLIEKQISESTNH

In general, IC50 refers to the midpoint of a concentration-inhibition curve.

The target of one assay is c-kit mutant D816V (Homo sapiens, UniProt P10721, D816V/DEL694-753). The experiment in a line: c-Kit mutant D816V biochemical assay, AlphaScreen. The note with it: read-out: Biochemical activity (IC50 μM) Kit D816V; c-kit D816V biochemical inhibitory activity.
The target of another assay is c-kit kinase (Homo sapiens, UniProt P10721). Nature of the assay: c-Kit biochemical assay, AlphaScreen, 10 μM ATP. The note with it: read-out: Biochemical activity (IC50 μM) Kit; c-kit biochemical inhibitory activity. In general terms: Alpha assays give light when donor and acceptor beads are brought close together.

Regarding `Cc1ccccc1Cc1c[nH]c2ncnc(N3CCN(C(=O)NCc4ccc(F)cc4)CC3)c12`, the IC50 at c-kit mutant D816V and on c-kit kinase was 10 to 200 µM in each case.
